Results: patent publication US20180271945A1, “UROCORTIN 2 ANALOGS AND USES THEREOF” (Research Development Foundation, priority 2009, published 2018)

By UniProt entry, the sequences of proteins in these tests, tags left out. Residues count along the entry.
UniProt P47866, 1-431 isoform P47866-2: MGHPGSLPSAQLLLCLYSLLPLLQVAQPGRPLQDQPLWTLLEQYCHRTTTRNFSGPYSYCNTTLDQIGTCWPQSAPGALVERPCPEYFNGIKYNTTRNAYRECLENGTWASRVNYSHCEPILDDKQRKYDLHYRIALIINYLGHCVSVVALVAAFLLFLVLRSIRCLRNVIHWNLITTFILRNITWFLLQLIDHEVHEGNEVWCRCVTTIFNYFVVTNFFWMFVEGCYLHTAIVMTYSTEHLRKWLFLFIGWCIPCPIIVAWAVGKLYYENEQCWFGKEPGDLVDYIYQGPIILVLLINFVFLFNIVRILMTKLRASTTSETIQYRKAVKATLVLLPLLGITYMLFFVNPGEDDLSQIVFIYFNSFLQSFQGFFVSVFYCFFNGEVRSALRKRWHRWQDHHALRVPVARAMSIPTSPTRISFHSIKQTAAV

Target: T1, CRFR2 (Rattus norvegicus, UniProt P47866)
T1 construct: A7r5 cells, which express CRFR2; endogenous in cells; host or cells: A7r5 cells
Experiment: stimulation of cAMP accumulation in A7r5 cells
Assay type: cell-based
Conditions: which express CRFR2, range in brackets, number of assays as superscript
Description: Urocortin 2 precursors were overexpressed in various cell lines, and their function was evaluated. Pancreatic and skin cell lines were infected with mouse urocortin 2 (mUcn 2) lentivirus. The amino acid sequence of mouse urocortin 2 is provided as SEQ ID NO:10. […] The peptide was synthesized and bioactivity was determined by the stimulation of cAMP accumulation in A7r5 cells, which express CRFR2. […] It is possible that R^0mUcn 2 could be further processed by aminopeptidases to mUcn 2(1-38). Number of assays are depicted as a superscript.
The corresponding human analog, R^0hUcn 2, was synthesized.
The EC50S were calculated based on protein determination by immunoassay and chromatographic peak height.

Structure (SMILES) | EC50
CC[C@H](C)[C@H](N)C(=O)N[C@H](C(=O)N[C@@H](CC(C)C)C(=O)N[C@@H](CO)C(=O)N[C@@H](CC(C)C)C(=O)N[C@@H](CC(=O)O)C(=O)N[C@H](C(=O)N1CCC[C@H]1C(=O)N[C@H](C(=O)NCC(=O)N[C@@H](CC(C)C)C(=O)N[C@@H](CC(C)C)C(=O)N[C@@H](CCC(N)=O)C(=O)N[C@H](C(=O)N[C@@H](CC(C)C)C(=O)N[C@@H](CC(C)C)C(=O)N[C@@H](CCC(=O)O)C(=O)N[C@@H](CCC(N)=O)C(=O)N[C@@H](C)C(=O)N[C@@H](CCCNC(=N)N)C(=O)N[C@@H](C)C(=O)N[C@@H](CCCNC(=N)N)C(=O)N[C@@H](C)C(=O)N[C@@H](C)C(=O)N[C@@H](CCCNC(=N)N)C(=O)N[C@@H](CCC(=O)O)C(=O)N[C@@H](CCC(N)=O)C(=O)N[C@@H](C)C(=O)N[C@H](C(=O)N[C@H](C(=O)N[C@@H](CC(N)=O)C(=O)N[C@@H](C)C(=O)N[C@@H](CCCNC(=N)N)C(=O)N[C@H](C(=O)N[C@@H](CC(C)C)C(=O)N[C@@H](C)C(=O)N[C@@H](CCCNC(=N)N)C(=O)N[C@H](C(N)=O)C(C)C)[C@@H](C)CC)[C@@H](C)O)[C@@H](C)O)[C@@H](C)CC)[C@@H](C)CC)C(C)C)C(C)C [hUcn 2, reference compound] | 0.11 nM
CC[C@H](C)[C@H](NC(=O)[C@H](CCC(N)=O)NC(=O)[C@H](C)NC(=O)[C@H](CC(N)=O)NC(=O)[C@@H](NC(=O)[C@H](C)NC(=O)[C@H](C)NC(=O)[C@H](CCC(N)=O)NC(=O)[C@H](CC(N)=O)NC(=O)[C@H](CCCNC(=N)N)NC(=O)[C@H](C)NC(=O)[C@H](C)NC(=O)[C@H](CCCCN)NC(=O)[C@H](Cc1ccc(O)cc1)NC(=O)[C@H](CCCNC(=N)N)NC(=O)[C@H](C)NC(=O)[C@H](CCC(N)=O)NC(=O)[C@H](CCC(=O)O)NC(=O)[C@H](CC(C)C)NC(=O)[C@H](CC(C)C)NC(=O)[C@@H](NC(=O)[C@H](CCCNC(=N)N)NC(=O)[C@H](CC(C)C)NC(=O)[C@H](CC(C)C)NC(=O)CNC(=O)[C@@H](NC(=O)[C@@H]1CCCN1C(=O)[C@@H](NC(=O)[C@H](CC(=O)O)NC(=O)[C@H](CC(C)C)NC(=O)[C@H](CO)NC(=O)[C@H](CC(C)C)NC(=O)[C@@H](NC(=O)[C@@H](N)C(C)C)[C@@H](C)CC)C(C)C)[C@@H](C)CC)[C@@H](C)CC)[C@@H](C)O)C(=O)N[C@@H](CC(C)C)C(=O)N[C@@H](C)C(=O)N[C@@H](Cc1c[nH]cn1)C(=O)N[C@H](C(N)=O)C(C)C [mUcn 2, reference compound] | 0.07 nM
